The record followed here is patent US20170269061A1, “METHOD FOR ASSESSING SENSITIVITY OF A TARGET DRUG IN VITRO AND A BIOMARKER USED THEREOF” (Tunghai University, priority 2016, published 2017).

The test system of this data set is BT-474 cells. The settings on record: BT-474 transfected with GFP-caveolin-1; T-DM1 72 hours. The protocol:
BT-474 cells were grown on plates in normal growth medium without antibiotics, and Lipofectamine 2000 transfection reagent (Invitrogen, ThermoFisher, Waltham, Mass., USA) was used to induce GFP-tagged caveolin-1 (Addgene, Cambridge, Mass., USA) overexpression. Caveolin-1siRNA (Dharmacon, GE health care, Lafayette, Colo., USA) was used in the knockdown experiment in SKBR-3 cells.

On to trastuzumab emtansine [T-DM1], for which the “T-DM1 cytotoxicity on overexpression of CAV-1” value was “increased T-DM1 cytotoxicity”.
